Reference: patent publication US5741689, “Methods to inhibit serine kinase activity and to alter intersubunit binding activity of phosphatidylinositol 3-kinase, and serine kinase active sequence of the same” (Ludwig Institute for Cancer Research, dated 1998)

Legend:
[1] = biological target: p85α subunit of PI3-kinase (bovine, full length, recombinant) (bovine, UniProt P23727); assay: GST-p110 fusion pull-down from Sf9 lysate expressing p85α
[2] = biological target: p85β subunit of PI3-kinase (bovine, full length, recombinant) (bovine, UniProt P23726); assay: GST-p110 fusion pull-down from Sf9 lysate expressing p85β

B1: GST-p110 fusion protein p110-2 ([…]) (other)
chain: MPVCEFDMVKDPEVQDFRRNILNVCKEAVDLRDLNSPH[letters of about 150 residues left out]PYMNGETSTKSLWVINSALRIKILCATYVNVNIRDIDKIYVRTGIYHGGEPLCDNVNTQRVPCSNPRWNEWLNYDIYIPDLPRAARLCLSICSVKGRKGAKEEHCPLAWGNINLFDYTDTLVSGKMALNLWPVPHGLEDLLNP
B1: no binding [1]; no binding [2].
